This note sets out measurements from ChEMBL document CHEMBL5375988, “AcGlcAs: A Novel P53-Targeting Arsenical with Potent Cellular Uptake and Cancer Cell Selectivity” (J Med Chem, 2023).

The test system of the experiment is NB-4. In words: Antiproliferative activity against human NB4 cells expressing PML/RARalpha assessed as cell growth inhibition measured after 48 hrs by CCK-8 assay. (In general: Tetrazolium assays rely on reduction of a dye to a coloured formazan, in cell work by metabolically active cells.)

Each structure is given as a SMILES string.

Turning to `O=[As]c1ccccc1` (configuration not stated), the concentration for half-maximal inhibition (IC50) is 30 nM.

In the case of `I[As](I)I`, the IC50 came to 160 nM.

Broadly, the IC50 is the concentration that gives 50% inhibition.
